Earlier results in US20150037832A1, “METHODS OF FACILITATING THE BIOCONVERSION OF CRUDE BIODIESEL-DERIVED GLYCEROL BY MICROORGANISMS” (priority 2011, published 2015).

Test system: Clostridium pasteurianum ATCC 6013
Settings: related art statement; cited from earlier work

butanol
concentration at which butanol becomes toxic to the cells: 2%
